Source: patent US20240109930A1, “TRIAZOLYL-METHYL SUBSTITUTED ALPHA-D-GALACTOPYRANOSIDE DERIVATIVES” (Idorsia Pharmaceuticals Ltd, priority 2021, published 2024)

Protein sequences, listed by entry. Tags and fused reporters are not part of them.
UniProt P17931, whole entry: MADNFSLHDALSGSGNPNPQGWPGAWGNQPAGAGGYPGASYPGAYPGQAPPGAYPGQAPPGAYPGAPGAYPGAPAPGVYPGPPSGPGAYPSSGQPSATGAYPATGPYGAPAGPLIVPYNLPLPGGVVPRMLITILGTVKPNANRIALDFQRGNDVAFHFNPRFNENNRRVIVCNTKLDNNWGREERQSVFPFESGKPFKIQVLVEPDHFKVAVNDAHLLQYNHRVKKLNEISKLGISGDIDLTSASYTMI

Biological target: human Gal-3 (hGal-3) (Homo sapiens (Human), UniProt P17931)
Test: Competitive binding assay: biotinylated hGal-3 binding to microplate-adsorbed asialofetuin (ASF)
Details: read-out: Gal-3 IC50, IC50 values from several measurements given as geomean
Description: The inhibitory activity of compounds is determined in competitive binding assays. This spectrophotometric assay measures the binding of biotinylated human Gal-3 (hGal-3) or human Gal-1 (hGal-1), respectively, to a microplate-adsorbed glycoprotein, asialofetuin (ASF) (Proc Natl Acad Sci USA. 2013 Mar. 26; 110(13):5052-7.). Alternatively, and preferably, a human Gal-1 version in which all six cysteines are substituted by serines may be used.
Briefly, compounds are serially diluted in DMSO (working dilutions). ASF-coated 384well plates are supplemented with 22.8 μL/well of biotinylated hGal-3 or hGal-1 in assay buffer (i.e. 300-1000 ng/mL biotinylated hGal-3 or hGal-1) to which 1.2 μL of compound working dilutions are added and mixed.
Plates are incubated for 3 hours at 4° C., then washed with cold assay buffer (3×50 uL), incubated for 1 hour with 25 μL/well of a streptavidin-peroxidase solution (diluted in assay buffer to 80 ng/mL) at 4° C., followed by further washing steps with assay buffer (3×50 uL). Finally, 25 μL/well of ABTS substrate is added. OD (410 nm) is recorded after 30 to 45 min and IC50 values are calculated.
The calculated IC50 values may fluctuate depending on the daily assay performance. Fluctuations of this kind are known to those skilled in the art. IC50 values from several measurements are given as geomean values.

Structure (SMILES)	IC50 [nM]
COC(=O)C(C)(C)n1cc(C[C@H]2O[C@H](CO)[C@H](O)[C@H](n3cc(-c4ccc(Cl)c(F)c4F)nn3)[C@H]2OC)nn1	60
CO[C@@H]1[C@@H](n2cc(-c3ccc(C#N)c(F)c3F)nn2)[C@@H](O)[C@@H](CO)O[C@@H]1Cc1cn(C2(C(F)F)CCC2)nn1	30
COC(=O)C(C)(C)n1cc(C[C@H]2O[C@H](CO)[C@H](O)[C@H](n3cc(-c4ccc(C)c(F)c4F)nn3)[C@H]2OC)nn1	60
